Target: T1, ROPN1B peptide on HLA-A*02:01 (human)
T1 peptide: EVIGPDGLITV
Experiment: multimer staining

binding result: recognises
B1: EVI TCR (TCR, V domains shown)
Valpha: AQSVTQLDSQVPVFEEAPVELRCNYSSSVSVYLFWYVQYPNQGLQLLLKYLSGSTLVKGINGFEAEFNKSQTSFHLRKPSVHISDTAEYFCAARTGGGNKLTFGTGTQLKVEL
Vbeta: DTEVTQTPKHLVMGMTNKKSLKCEQHMGHRAMYWYKQKAKKPPELMFVYSYEKLSINESVPSRFSPECPNSSLLNLHLHALQPEDSALYLCASSQEGLAGVPQYFGPGTRLLVL
